The source of these data is US20160052936A1, “SPIROINDOLINE DERIVATIVES FOR USE AS GONADOTROPIN-RELEASING HORMONE RECEPTOR ANTAGONISTS” (BAYER PHARMA AKTIENGESELLSCHAFT, priority 2013, published 2016).

By UniProt entry, the sequences of proteins in these tests, tags left out.
UniProt P30968, whole entry: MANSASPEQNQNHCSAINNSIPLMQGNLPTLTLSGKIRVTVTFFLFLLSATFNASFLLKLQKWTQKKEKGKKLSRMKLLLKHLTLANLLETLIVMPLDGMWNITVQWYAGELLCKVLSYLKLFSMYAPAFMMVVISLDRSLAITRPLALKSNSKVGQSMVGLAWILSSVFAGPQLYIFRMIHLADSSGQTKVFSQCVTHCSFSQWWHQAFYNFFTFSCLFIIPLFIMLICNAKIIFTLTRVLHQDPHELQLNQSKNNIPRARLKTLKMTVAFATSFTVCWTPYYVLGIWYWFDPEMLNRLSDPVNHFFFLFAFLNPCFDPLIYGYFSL

One test has as its target human GnRH receptor (Homo sapiens, UniProt P30968). The experiment in a line: IP-One HTRF assay with buserelin stimulation. The test is classed as cell-based. On the technique in general: In TR-FRET formats the signal depends on donor and acceptor labels being close together.
For a further test, the target named is human GnRHR (Homo sapiens, UniProt P30968). The experiment in a line: Tag-Lite receptor binding assay. The note with it: read-out: Potency in receptor binding assay using TAG-LITE technology, given as IC50; Hek293 cells transiently transfected with human GnRHR; displacement of green-labelled GnRHR binding peptide.

SMILES strings stand for the structures.

As for `N#Cc1ccc(S(=O)(=O)N2c3ccc(C(=O)NCc4ncc(C(F)(F)F)cc4F)cc3C3(CCS(=O)(=O)CC3)C2C2CC2)cc1` (centres unmarked), on human GnRH receptor, the IC50 – broadly, the concentration at which inhibition is half-maximal – was more than 20000 nM.

Take `NC(=O)c1ccc(S(=O)(=O)N2c3ccc(C(=O)NCc4ncc(C(F)(F)F)cc4Cl)cc3C3(CCS(=O)(=O)CC3)C2C2CC2)cc1` (centres unmarked): the half-maximal inhibitory concentration (IC50) at human GnRHR stood at 81.7 nM; on human GnRH receptor, 122 nM.

Molecule `O=C(NCc1ncc(C(F)(F)F)cc1Cl)c1ccc2c(c1)C1(CCS(=O)(=O)CC1)C(C1CC1)N2S(=O)(=O)c1ccc(OC(F)F)cc1` (centres unmarked) showed a concentration for half-maximal inhibition (IC50) at human GnRH receptor of 24 nM.

For `O=C(NCc1ncc(C(F)(F)F)cc1F)c1ccc2c(c1)C1(CCS(=O)(=O)CC1)C(C1CC1)N2S(=O)(=O)c1ccc(Cl)cc1` (centres unmarked), the IC50 against human GnRH receptor is 1530 nM.

The molecule `Cc1cnc(CNC(=O)c2ccc3c(c2)C2(CCS(=O)(=O)CC2)C(C2CC2)N3S(=O)(=O)c2ccc(F)cc2)c(C(F)(F)F)c1` (single isomer, unassigned) [Example 5.1] yielded an IC50 at human GnRH receptor of 606 nM.

On human GnRH receptor, `Cc1cnc(CNC(=O)c2ccc3c(c2)C2(CCS(=O)(=O)CC2)C(C2CC2)N3S(=O)(=O)c2ccc(F)cc2)c(C(F)(F)F)c1` (single isomer, unassigned) [Example 5.2] gave a half-inhibitory concentration (IC50) of 4250 nM.

As for `COc1cccc(S(=O)(=O)N2c3ccc(C(=O)NCc4ncc(C(F)(F)F)cc4F)cc3C3(CCS(=O)(=O)CC3)C2C2CC2)c1` (single isomer, unassigned) [Example 6.1], the half-maximal inhibitory concentration (IC50) on human GnRH receptor was 110 nM.

On human GnRH receptor, `COc1cccc(S(=O)(=O)N2c3ccc(C(=O)NCc4ncc(C(F)(F)F)cc4F)cc3C3(CCS(=O)(=O)CC3)C2C2CC2)c1` (single isomer, unassigned) [Example 6.2] showed a half-inhibitory concentration (IC50) of 3260 nM.

At human GnRH receptor, `O=C(NCc1ncc(C(F)(F)F)cc1F)c1ccc2c(c1)C1(CCS(=O)(=O)CC1)C(C1CC1)N2S(=O)(=O)c1cccc(OC(F)(F)F)c1` (single isomer, unassigned) [Example 11.1] yielded a half-maximal inhibitory concentration (IC50) of 262 nM.

Take `O=C(NCc1ncc(C(F)(F)F)cc1F)c1ccc2c(c1)C1(CCS(=O)(=O)CC1)C(C1CC1)N2S(=O)(=O)c1cccc(OC(F)(F)F)c1` (single isomer, unassigned) [Example 11.2]: the IC50 against human GnRH receptor is more than 20000 nM.

Turning to `O=C(NCc1ncc(C(F)(F)F)cc1F)c1ccc2c(c1)C1(CCS(=O)(=O)CC1)C(C1CC1)N2S(=O)(=O)c1cccc(OC(F)F)c1` (single isomer, unassigned) [Example 13.1], the half-inhibitory concentration (IC50) against human GnRH receptor came out at 122 nM.

On human GnRH receptor, `O=C(NCc1ncc(C(F)(F)F)cc1F)c1ccc2c(c1)C1(CCS(=O)(=O)CC1)C(C1CC1)N2S(=O)(=O)c1cccc(OC(F)F)c1` (single isomer, unassigned) [Example 13.2] showed an IC50 of more than 20000 nM.

The molecule `O=C(NCc1ncc(C(F)(F)F)cc1Cl)c1ccc2c(c1)C1(CCS(=O)(=O)CC1)C(C1CC1)N2S(=O)(=O)c1cccc(OC(F)F)c1` (single isomer, unassigned) [Example 14.1] had an IC50 on human GnRH receptor of 22 nM.

On human GnRH receptor, `O=C(NCc1ncc(C(F)(F)F)cc1Cl)c1ccc2c(c1)C1(CCS(=O)(=O)CC1)C(C1CC1)N2S(=O)(=O)c1cccc(OC(F)F)c1` (single isomer, unassigned) [Example 14.2] displayed an IC50 of 3950 nM.

For `O=C(NCc1ncc(C(F)(F)F)cc1F)c1ccc2c(c1)C1(CCS(=O)(=O)CC1)C(C1CC1)N2S(=O)(=O)c1ccc(OC(F)F)cc1` (single isomer, unassigned) [Example 15.1], on human GnRH receptor, the IC50 came out at 45 nM.

The molecule `O=C(NCc1ncc(C(F)(F)F)cc1F)c1ccc2c(c1)C1(CCS(=O)(=O)CC1)C(C1CC1)N2S(=O)(=O)c1ccc(OC(F)F)cc1` (single isomer, unassigned) [Example 15.2] showed an IC50 at human GnRH receptor of more than 20000 nM.
